Laboratory results as given in ChEMBL document CHEMBL5576078, “Discovery of a potent, orally available furopyridine derivative as a novel selective bromodomain and extra-terminal domain (BET)-first bromodomain (BD1) inhibitor” (Bioorg Med Chem Lett, 2024).

Target: Bromodomain-containing protein 4 (Homo sapiens, UniProt O60885)
Test: Inhibition of BRD4 BD2 (unknown origin) at 10 uM by TR-FRET assay relative to control

SMILES	inhibition [%]
Cc1cc2c(-c3ccco3)cnc(N[C@@H]3CCN(C)C[C@H]3C(=O)NC3CCCCC3)c2[nH]c1=O	35
C[C@@H]1CN(S(C)(=O)=O)CCN1Cc1cc2c(=O)n(C)cc(-c3nc(Cl)cn3CC3CCOCC3)c2o1	14
